The list shows a part of the results, in another mix than the full data. Active and inactive are the calls of the source. Cut-off read from the data, not from the text of the source: active = inhibition above about 15%; inconclusive = no clear call, values can overlap the other calls; inactive = below that.
The molecules below were run against NAD-dependent protein deacylase sirtuin-5, mitochondrial (Homo sapiens) (UniProt Q9NXA8) (assay: SIRT5 desuccinylase inhibitors, primary screen, biochemical, fluorescence imaging, single point, set 5 (AID 652115)). Settings: Purified SirT5, succinyl-peptide AMC, trypsin-coupled fluorescence; at 15 µM; hits give high values.

Sequences of proteins named here, by UniProt entry; tags and fusion partners are left off. A change or cut given only in a name is not applied to a line headed by its entry.
UniProt Q9NXA8: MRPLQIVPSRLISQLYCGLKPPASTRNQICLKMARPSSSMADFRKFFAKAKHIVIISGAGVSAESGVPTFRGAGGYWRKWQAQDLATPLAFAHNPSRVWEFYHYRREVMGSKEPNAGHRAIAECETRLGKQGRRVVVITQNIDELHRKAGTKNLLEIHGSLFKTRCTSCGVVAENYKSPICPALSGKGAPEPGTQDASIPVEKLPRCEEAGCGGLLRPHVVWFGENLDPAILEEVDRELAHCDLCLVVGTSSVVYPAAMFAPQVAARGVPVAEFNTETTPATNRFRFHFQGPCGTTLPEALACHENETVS

| SMILES | inhibition |
| --- | --- |
| O=[N+]([O-])c1cc([N+](=O)[O-])c(CCNc2ccccc2)c([N+](=O)[O-])c1 | inactive: -5.14% |
| Cc1ccc(NP(=O)(Oc2ccccc2)Oc2ccccc2)nc1 | inactive: 0.063% |
| COc1ccc(C2=NCC(CBr)S2)cc1 (stereo not given) | inactive: 3.42% |
| CC(C)=N/N=C(\N)N[N+](=O)[O-] | inactive: -0.753% |
| CC(C)c1nc(Nc2ccccc2)n(P(=O)(N(C)C)N(C)C)n1 | inactive: -0.401% |
| c1cc(-c2nn[nH]n2)ccc1-c1nn[nH]n1 | inactive: -8.03% |
| Nc1ccc([As](=O)(O)c2ccc(N)cc2)cc1 | inactive: -3.12% |
| CCN(/C(=N/P(=O)(N1CCOCC1)N1CCOCC1)N1CCOCC1)c1ccc(OC)cc1 | inactive: 0.427% |
| O=C(Nc1cc([As](=O)(O)O)ccc1O)c1ccccc1 | inactive: 0.778% |
| O=P1(N(CCCl)CCCl)OCCCS1 (stereo not given) | inactive: -0.085% |
| O=[N+]([O-])c1cccc(NC2=NCC(CBr)S2)c1 (stereo not given) | inactive: 0.57% |
| COC(=O)C1(C)COP(=O)(Nc2ccccc2)OC1 (stereo not given) | inactive: -2.42% |
| O=C(O)CNc1ccc([As](=O)(O)O)cc1 | inactive: -3.64% |
| CC(C)(C)C(=O)NC(Sc1ccncn1)C(Cl)(Cl)Cl (stereo not given) | inactive: -0.7% |
| O=[N+]([O-])c1ncn(CCn2ncnc2[N+](=O)[O-])n1 | inactive: -1.19% |
| Cc1ccc(NP(=O)(Oc2ccccc2F)Oc2ccccc2F)nc1 | inactive: -1.86% |
| CN(C(=O)Cc1ccc(Cl)c(Cl)c1)[C@H]1CCCC[C@@H]1N1CCCC1 | inactive: -6.64% |
| O=C(O)c1ccccc1[As](=O)(O)O | inactive: -2.91% |
| CC(=O)Nc1ccc([As](=O)(O)O)cc1 | inactive: -5.27% |
| CN(C)P(=O)(N(C)C)n1c(Nc2ccccc2)nnc1-c1ccccc1 | inactive: -2.9% |
| O=P(Nc1nc2ccc(Cl)cc2s1)(c1ccccc1)c1ccccc1 | inactive: 1.7% |
| Nc1cccc2ccc([As](=O)(O)O)cc12 | inactive: -0.612% |
| Cc1ccc(OP(=O)(Nc2nccs2)Oc2ccc(C)cc2)cc1 | inactive: -1.69% |
| COc1ccccc1OP(=O)(Nc1ccc(C)cn1)Oc1ccccc1OC | active: 16.3% |
| Clc1ccc(Cl)c(NC2=NCC(CBr)S2)c1 (stereo not given) | inactive: -3.47% |

| SMILES | inhibition |
| --- | --- |
| NC(=O)c1cc([N+](=O)[O-])cc([N+](=O)[O-])c1N | inactive: 6.07% |
| Cc1ccc(N/C(=N/P(=O)(N2CCOCC2)N2CCOCC2)N2CCOCC2)cc1 | inactive: -3.06% |
| CN(C(=O)Cc1ccc(Cl)c(Cl)c1)[C@H]1CCCC[C@H]1N1CCCC1 | inactive: -5.52% |
| CC(C)CC(=O)NC(Sc1ccc(Cl)cc1)C(Cl)(Cl)Cl (stereo not given) | inactive: -1.8% |
| Nc1cc(N)c2nonc2c1[N+](=O)[O-] | inactive: -3.29% |
| O=C(NC(Sc1ccncn1)C(Cl)(Cl)Cl)c1ccccc1 (stereo not given) | inactive: -9.15% |
| CCc1cc(O)c([N+](=O)[O-])c(C)c1[N+](=O)[O-] | inactive: -3.01% |
| CC(C)(C)C(=O)NC(Sc1ccccc1)C(Cl)(Cl)Cl (stereo not given) | inactive: -0.167% |
| CCOc1ccc(C2=NCC(CBr)S2)cc1 (stereo not given) | inactive: -2.12% |
| CC(=O)Nc1ccc(Oc2c([N+](=O)[O-])cc([N+](=O)[O-])cc2[N+](=O)[O-])cc1 | inactive: -0.195% |
| CC(=O)Nc1ccc([As](=O)(O)O)c(O)c1 | inactive: -3.59% |
| COC(=O)C1(C)COP(=O)(NCc2ccccc2)OC1 (stereo not given) | inactive: 2.41% |
| N#C/C(=C\c1ccc(N(CCBr)CCBr)cc1)C(N)=O | inactive: 1.18% |
| CC(=O)c1ccc(N2CC2c2ccncc2)cc1 (stereo not given) | inactive: 1.15% |
| C[C@@H]1C=CCP(=O)(Oc2ccccc2)O1 (stereo not given in full) | inactive: -1.1% |
| C[C@H]1OP(=O)(Oc2ccccc2)C[C@@H]2O[C@@H]21 (stereo not given in full) | inactive: 0.118% |
| Cc1ccccc1CN(C)C(=O)COC(=O)C(O)(c1ccccc1)c1ccccc1 | inactive: 1.22% |
| O=P1(N(CCCl)CCCl)OCCC2CCCCN21 (stereo not given) | inactive: -0.698% |
| CCNC(=S)/N=C(\N)N[N+](=O)[O-] | inactive: 0.332% |
| O=C(NC1CCS(=O)(=O)C1)NP(=S)(Oc1ccccc1)Oc1ccccc1 (stereo not given) | inactive: 1.35% |
| Cc1ccc(NP(=O)(Oc2cccc(C)c2)Oc2cccc(C)c2)nc1 | inactive: -7.34% |
| c1ccc(-c2nn[nH]n2)c(-c2nn[nH]n2)c1 | inactive: -0.054% |
| CN(C)C(=O)Oc1noc2ccccc12 | inactive: -2.54% |
| O=c1c2cc([N+](=O)[O-])ccc2[nH]c2c([N+](=O)[O-])cc([N+](=O)[O-])cc12 | inactive: -1.46% |
| Cc1ccccc1OP(=O)(Nc1ccccn1)Oc1ccccc1C | inactive: -6.76% |

| SMILES | inhibition |
| --- | --- |
| CC(NC(=O)COC(=O)C(O)(c1ccccc1)c1ccccc1)c1ccccc1 (stereo not given) | inactive: -4.88% |
| Cc1ccc(OP(=O)(Nc2ccccn2)Oc2ccc(C)cc2)cc1 | inactive: -3.28% |
| O=C(OC1CN2CCC1CC2)c1ccccc1 (stereo not given) | inactive: 1.73% |
| O=P(Nc1nc2ccccc2s1)(c1ccccc1)c1ccccc1 | inactive: 0.792% |
| Nc1ccc(CCCCOc2ccccc2)cc1 | inactive: -0.338% |
| O=P(Nc1ccccn1)(c1ccc(Br)cc1)c1ccc(Br)cc1 | inactive: -4.53% |
| CN(C)C1(CNC(=O)c2ccc(Cl)c(S(N)(=O)=O)c2)CCCCC1 | inactive: -2.46% |
| Nc1ccc([As](=O)(O)c2ccc([N+](=O)[O-])cc2)cc1 | inactive: -0.981% |
| C(Cc1nn[nH]n1)Cc1nn[nH]n1 | inactive: -4.77% |
| O=[N+]([O-])c1ncn(CCn2cnc([N+](=O)[O-])n2)n1 | inactive: -3.33% |
| CC(=O)NC(SC(=S)N(C)C)C(Cl)(Cl)Cl (stereo not given) | inactive: -6.53% |
| O=[As](O)(c1ccccc1)c1ccc(O)cc1 | inactive: -3.52% |
| CC(C)(C)C(=O)NC(Sc1ncccn1)C(Cl)(Cl)Cl (stereo not given) | inactive: 1.56% |
| O=P1(N(CCCl)CCCl)NCCC(C(F)(F)F)O1 (stereo not given) | inactive: -2.11% |
| CN(CCCl)Cc1cc(Cl)c(NC2=NCCN2)c(Cl)c1 | inactive: -4.53% |
| CCOP(=O)(Nc1ccc(C)cn1)OCC | inactive: -2.82% |
| CCOP(=O)(NC(=NC(C)c1ccccc1)NC(C)c1ccccc1)OCC (stereo not given) | inactive: -1.08% |
| CCC1=CC2Cc3nc4ccc(Cl)cc4c(N)c3C(C1)C2 (stereo not given) | inactive: -2.52% |
| CC(C)/C=N\N=C(\N)N[N+](=O)[O-] | inactive: -4.19% |
| CN(C(=O)Cc1ccc(Cl)c(Cl)c1)[C@@H]1CCCC[C@H]1N1CCCC1 | inactive: -4.29% |
| COc1ccccc1CNC(=O)COC(=O)C(O)(c1ccccc1)c1ccccc1 | inactive: 0.918% |
| O=C(/C=C/c1ccccc1)OC1CN2CCC1CC2 (stereo not given) | inactive: -0.277% |
| CC1CCC(C(C)C)C(OP(=O)(Nc2ccccn2)c2ccccc2)C1 (stereo not given) | inactive: 2.36% |
| Cc1ccc(C(=O)OC2CN3CCC2CC3)cc1 (stereo not given) | inactive: 1.98% |
| NS(=O)(=O)c1cccc(NC(=O)COC(=O)C(O)(c2ccccc2)c2ccccc2)c1 | inactive: -0.65% |

| SMILES | inhibition |
| --- | --- |
| O=[As](O)(c1cccs1)c1cccs1 | inactive: -3.94% |
| Nc1cccc([As](=O)(O)c2ccccc2)c1 | inactive: -0.907% |
| Nc1ccccc1[As](=O)(O)c1ccccc1 | inactive: -2.42% |
| O=C(O)COc1ccc([As](=O)(O)O)cc1[N+](=O)[O-] | inactive: -3.02% |
| O=P(Nc1nccs1)(Oc1ccccc1)Oc1ccccc1 | inactive: -0.572% |
| CCOP1(=S)c2c(C)nn(CCC#N)c2N=C(c2ccccc2F)N1C (stereo not given) | inactive: 0.228% |
| CN(C(=O)Cc1ccc(Cl)c(Cl)c1)[C@H]1CC[C@@]2(CCCO2)C[C@@H]1N1CCCC1 | inactive: -10.1% |
| CN(C)C(=O)c1cc([N+](=O)[O-])cc2c1-c1c(cc([N+](=O)[O-])cc1[N+](=O)[O-])C2=O | inactive: -0.783% |
| CCOP1(=S)c2c(C)nn(CCC#N)c2N=C(c2ccc(F)cc2)N1C (stereo not given) | inactive: -4.68% |
| CN(C(=O)Cc1ccccc1)[C@@H]1CC[C@]2(CCCO2)C[C@H]1N1CCCC1 | inactive: -2.68% |
| N#CCCN(C(=O)COC(=O)C(O)(c1ccccc1)c1ccccc1)c1ccc(F)cc1 | inactive: -2.5% |
| NC(=O)Nc1ccc([As](=O)(O)O)cc1 | inactive: 0.78% |
| O=[As](O)(c1cccc(O)c1)c1cccc(O)c1 | inactive: -3.57% |
| CS(=O)(=O)c1ccc(Cl)c(NC(=O)COC(=O)C(O)(c2ccccc2)c2ccccc2)c1 | inactive: 1.47% |
| COc1cc(C(=O)NCC2(N3CCOCC3)CCCCC2)cc(Cl)c1OC(C)C | inactive: -1.69% |
| O=[As](O)(O)c1cccnc1 | inactive: -1.12% |
| O=C(OC1CN2CCC1CC2)c1ccc(Cl)cc1 (stereo not given) | inactive: -1.3% |
| CCOP(=O)(Nc1cccc2ccccc12)OCC | inactive: -6.87% |
| CCCOP(=S)(Nc1nc(N)cc(=O)[nH]1)OCCC | inactive: -1.02% |
| Nc1cccc2c([As](=O)(O)O)cccc12 | inactive: -2.31% |
| Cc1ccc(NCCc2c([N+](=O)[O-])cc([N+](=O)[O-])cc2[N+](=O)[O-])cc1 | inactive: 2.69% |
| COc1cc(I)ccc1[As](=O)(O)O | inactive: -0.645% |
| COc1ccc2nc(NP(=O)(c3ccccc3)c3ccccc3)sc2c1 | inactive: -1.94% |
| COc1ccc(CN2/C(=N\P(=O)(Oc3ccccc3)Oc3ccccc3)Cc3ccccc3C2C2CC2)cc1 (stereo not given) | inactive: 6.71% |
| O=P1(N(CCCl)CCCl)Nc2ccccc2N1 | inactive: 1.25% |

Source: PubChem BioAssay AID652115 (Broad Institute, 2013)
